The record followed here is paper PMC3961306, “Comparison of the Cancer Gene Targeting and Biochemical Selectivities of All Targeted Kinase Inhibitors Approved for Clinical Use” (PLoS ONE, 2014).

What all share (assay): Kinase profiling in a biochemical assay panel (mobility shift assays and ELISA), %-inhibition at 1 μM; selectivity entropy
For test [1], the target named is panel of more than 300 wild-type and mutant kinases (313 kinase panel) (Homo sapiens, UniProt Q12866).
In test [2] the target is panel of more than 300 wild-type and mutant kinases (313 kinase panel) (Homo sapiens, UniProt Q02156).
For test [3], the target named is panel of more than 300 wild-type and mutant kinases (313 kinase panel) (Homo sapiens, UniProt Q13976).
Test [4] deals with panel of more than 300 wild-type and mutant kinases (313 kinase panel) (Homo sapiens, UniProt P41743). To be noted: 1 µM.
For test [5], the target named is panel of more than 300 wild-type and mutant kinases (313 kinase panel) (Homo sapiens, UniProt Q9Y6E0). The following applies: 1 µM.
Test [6] concerns the target panel of more than 300 wild-type and mutant kinases (313 kinase panel) (Homo sapiens, UniProt P22694). The following applies: 1 µM.
The target in test [7] is panel of more than 300 wild-type and mutant kinases (313 kinase panel) (Homo sapiens, UniProt O60285). To be noted: 1 µM.
The target of test [8] is panel of more than 300 wild-type and mutant kinases (313 kinase panel) (Homo sapiens, UniProt P29323). The following applies: 1 µM.
The target of test [9] is panel of more than 300 wild-type and mutant kinases (313 kinase panel) (Homo sapiens, UniProt P22607). The following applies: 1 µM.
Test [10] deals with panel of more than 300 wild-type and mutant kinases (313 kinase panel) (Homo sapiens, UniProt P16234, T674I). The following applies: 1 µM.
Test [11] concerns the target panel of more than 300 wild-type and mutant kinases (313 kinase panel) (Homo sapiens, UniProt P45985). To be noted: 1 µM.
The target in test [12] is panel of more than 300 wild-type and mutant kinases (313 kinase panel) (Homo sapiens, UniProt Q99683). To be noted: 1 µM.
Test [13] deals with panel of more than 300 wild-type and mutant kinases (313 kinase panel) (Homo sapiens, UniProt Q9NRM7). To be noted: 1 µM.
Test [14] addresses panel of more than 300 wild-type and mutant kinases (313 kinase panel) (Homo sapiens, UniProt Q14680). To be noted: 1 µM.
Test [15] deals with panel of more than 300 wild-type and mutant kinases (313 kinase panel) (Homo sapiens, UniProt Q9H4A3). To be noted: 1 µM.
In test [16] the target is panel of more than 300 wild-type and mutant kinases (313 kinase panel) (Homo sapiens, UniProt P45983). The following applies: 1 µM.
In test [17] the target is panel of more than 300 wild-type and mutant kinases (313 kinase panel) (Homo sapiens, UniProt Q8IWQ3). To be noted: 1 µM.
Test [18] addresses panel of more than 300 wild-type and mutant kinases (313 kinase panel) (Homo sapiens, UniProt Q8TDX7). To be noted: 1 µM.
Test [19] has as its target panel of more than 300 wild-type and mutant kinases (313 kinase panel) (Homo sapiens, UniProt P04049). The following applies: 1 µM.
The target of test [20] is panel of more than 300 wild-type and mutant kinases (313 kinase panel) (Homo sapiens, UniProt Q07912). To be noted: 1 µM.
For test [21], the target named is panel of more than 300 wild-type and mutant kinases (313 kinase panel) (Homo sapiens, UniProt P19525). The following applies: 1 µM.
The target of test [22] is panel of more than 300 wild-type and mutant kinases (313 kinase panel) (Homo sapiens, UniProt Q8NE63). To be noted: 1 µM.
The target of test [23] is panel of more than 300 wild-type and mutant kinases (313 kinase panel) (Homo sapiens, UniProt P49841). To be noted: 1 µM.

In the case of `CNC(=O)c1ccccc1Sc1ccc2c(/C=C/c3ccccn3)n[nH]c2c1` [axitinib], the “%-inhibition of MER” value in test [1] (kinase MER, compound at 1 μM) was 72%. In addition, in test [2] (kinase PKCε, 1 μM), the “%-inhibition of PKCε” value was -7.49%. Further, the “%-inhibition of PGK” value in test [3] (kinase PGK, 1 μM) is reported as -3.22%.

As for `COc1cc2ncnc(Nc3ccc(F)c(Cl)c3)c2cc1OCCCN1CCOCC1` [gefitinib], the “%-inhibition of PKCι” value in test [4] was found to be 9%. Further, in [5], the “%-inhibition of MST3” value stood at 11%. The “%-inhibition of PKACβ” value in test [6] is -2.6%. Besides, the “%-inhibition of NuaK1” value in [7] was 13%. Moreover, the “%-inhibition of EPHB2” value in test [8] was found to be 46%. In addition, the “%-inhibition of FGFR3” value in test [9] is listed as 13%. For the same compound, the “%-inhibition of PDGFRα(T674I)” value in [10] is 79%. Also, in [11], the “%-inhibition of MAP2K4” value is given as -3.57%. In addition, the “%-inhibition of MAP3K5” value in test [12] was determined as 3.27%. Besides, the “%-inhibition of LATS2” value in test [13] was -4%. Besides, the “%-inhibition of MELK” value in test [14] was found to be 2.78%. In addition, the “%-inhibition of WNK1” value in test [15] turned out to be 2.48%. Moreover, in test [16], the “%-inhibition of JNK1” value is recorded as 21%. For the same compound, the “%-inhibition, BRSK2” value in test [17] amounted to 8%. Moreover, the “%-inhibition of NEK7” value in [18] is recorded as -9%. Besides, in [19], the “%-inhibition of RAF1” value was 2.31%. Also, in [20], the “%-inhibition, ACK” value is 47%. Moreover, the “%-inhibition of PKR” value in test [21] is given as 8.43%. In test [22], the “%-inhibition of HIPK4” value was found to be 83%. In addition, in test [23], the “%-inhibition of GSK3β” value is reported as -6%.

Consider `C[C@@H]1CCN(C(=O)CC#N)C[C@@H]1N(C)c1ncnc2[nH]ccc12` [tofacitinib], for which the “%-inhibition of PKCι” value in [4] is recorded as -14%. Besides, the “%-inhibition of MST3” value in test [5] is given as -1.58%. Also, the “%-inhibition of PKACβ” value in [6] came to 8%. The “%-inhibition of NuaK1” value in test [7] is on record as 39%. For the same compound, the “%-inhibition of EPHB2” value in test [8] is -3%. In addition, the “%-inhibition of MER” value in [1] (1 µM) came to 0.948%. Besides, in [9], the “%-inhibition of FGFR3” value turned out to be 4.61%. Moreover, the “%-inhibition of PKCε” value in [2] (1 µM) is reported as -4.32%. Also, the “%-inhibition of PDGFRα(T674I)” value in test [10] amounted to 25%. Further, the “%-inhibition of MAP2K4” value in [11] is listed as -1.89%. For the same compound, the “%-inhibition of PGK” value in [3] (1 µM) turned out to be 4%. For the same compound, the “%-inhibition of MAP3K5” value in test [12] came to 3.37%. In addition, the “%-inhibition of LATS2” value in test [13] is given as -2%. Moreover, in [14], the “%-inhibition of MELK” value is recorded as 3.21%. In test [15], the “%-inhibition of WNK1” value was -3.25%. Moreover, in test [16], the “%-inhibition of JNK1” value is given as -0.777%. The “%-inhibition, BRSK2” value in test [17] was -0.511%. The “%-inhibition of NEK7” value in test [18] is on record as -1.23%. Moreover, in [19], the “%-inhibition of RAF1” value was 10%. Moreover, the “%-inhibition, ACK” value in test [20] was 17%. Besides, in [21], the “%-inhibition of PKR” value was -8%. The “%-inhibition of HIPK4” value in test [22] is given as -6%. For the same compound, in test [23], the “%-inhibition of GSK3β” value was determined as 1.1%.
